Holding throughout (type): biochemical
In one experiment the target is PSA (Homo sapiens, UniProt P07288). The experiment is described as follows: PSA activity assay, inhibition kinetics by progress curves.
The target of experiment [1] is dipeptidyl peptidase 4 (DPP-4) (Homo sapiens, UniProt P27487). Put plainly: Protease specificity: DPP-4 + AP-AFC. As to conditions: DPPIV.
For another experiment, the target named is cathepsin B (Homo sapiens, UniProt P07858). Put plainly: Protease specificity: cathepsin B + Z-RR-AMC.
The next experiment has as its target cathepsin D (Bos taurus, UniProt P80209). Put plainly: Protease specificity: Cathepsin D Assay Kit.

Chains of the proteins cited; added tags and fusions are not shown. Residues count along the entry.
UniProt P07288, 25-261: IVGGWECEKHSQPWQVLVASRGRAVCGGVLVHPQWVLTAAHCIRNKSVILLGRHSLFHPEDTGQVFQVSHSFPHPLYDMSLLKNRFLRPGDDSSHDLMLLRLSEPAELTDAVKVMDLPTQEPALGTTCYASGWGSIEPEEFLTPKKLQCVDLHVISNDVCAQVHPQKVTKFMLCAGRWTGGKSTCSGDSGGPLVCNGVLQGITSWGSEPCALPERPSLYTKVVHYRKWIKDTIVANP
UniProt P27487, whole entry, species assumed: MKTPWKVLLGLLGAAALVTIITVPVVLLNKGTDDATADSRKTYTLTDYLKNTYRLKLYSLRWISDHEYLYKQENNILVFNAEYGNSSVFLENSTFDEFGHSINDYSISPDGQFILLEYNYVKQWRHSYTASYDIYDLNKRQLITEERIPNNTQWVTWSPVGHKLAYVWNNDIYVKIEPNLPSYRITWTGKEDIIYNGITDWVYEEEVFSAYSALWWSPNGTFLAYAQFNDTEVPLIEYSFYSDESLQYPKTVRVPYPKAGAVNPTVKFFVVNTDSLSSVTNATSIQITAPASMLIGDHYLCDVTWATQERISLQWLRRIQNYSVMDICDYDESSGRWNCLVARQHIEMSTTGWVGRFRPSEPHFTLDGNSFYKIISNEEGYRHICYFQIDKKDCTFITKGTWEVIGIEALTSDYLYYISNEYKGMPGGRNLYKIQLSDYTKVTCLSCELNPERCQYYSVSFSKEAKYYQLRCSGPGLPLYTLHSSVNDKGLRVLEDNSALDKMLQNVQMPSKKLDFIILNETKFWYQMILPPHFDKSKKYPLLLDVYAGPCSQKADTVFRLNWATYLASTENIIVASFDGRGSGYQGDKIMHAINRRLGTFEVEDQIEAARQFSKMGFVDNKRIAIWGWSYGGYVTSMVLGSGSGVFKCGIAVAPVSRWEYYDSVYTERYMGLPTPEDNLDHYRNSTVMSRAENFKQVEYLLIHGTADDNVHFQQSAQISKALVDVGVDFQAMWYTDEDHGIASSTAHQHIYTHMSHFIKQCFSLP
UniProt P80209, 45-390: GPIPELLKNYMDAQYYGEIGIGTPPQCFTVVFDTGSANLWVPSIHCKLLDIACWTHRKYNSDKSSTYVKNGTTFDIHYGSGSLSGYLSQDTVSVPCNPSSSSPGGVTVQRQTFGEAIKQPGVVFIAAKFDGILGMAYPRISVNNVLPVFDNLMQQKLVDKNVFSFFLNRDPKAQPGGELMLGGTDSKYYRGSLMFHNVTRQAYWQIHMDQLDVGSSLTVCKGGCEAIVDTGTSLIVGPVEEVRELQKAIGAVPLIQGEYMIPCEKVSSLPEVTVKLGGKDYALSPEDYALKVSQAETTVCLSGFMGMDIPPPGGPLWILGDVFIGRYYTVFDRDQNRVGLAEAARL

Where two headings read alike, the source gives them in different places.

By Ki is commonly meant a dissociation constant, usually derived from enzyme kinetics or from competition with a known ligand. On to Z-K(boro)L [compound 33], for which the Ki was 353 ± 23.7 µM on PSA and 353 µM on PSA (listed as Z-K(boro)L).

In turn, Z-KL(boro)L [compound 36] returned a Ki on PSA of 5.98 ± 0.24 µM.

Z-KL(boro)Nle [compound 37] displayed a Ki at PSA of 23.6 ± 0.47 µM.

As for Z-KL-H [compound 11], at PSA, the Ki is more than 1000 µM.

As for Z-KLL-H [compound 9], the affinity on PSA corresponds to a Ki of 171 ± 6.88 µM.

Regarding Z-KNle-H [compound 20], at PSA, the Ki is more than 1000 µM.

In the case of Z-LKSSL [compound 16], the Ki at PSA was more than 1000 µM.

“Z-LLL-H (MG132) [compound 17, reference compound]”: the Ki stood at 13.2 ± 0.86 µM at PSA and 13.2 µM on PSA (listed as Z-LLL-H (MG132)).

Z-Q(boro)L [compound 32]: the results for the Ki on PSA and on PSA (listed as Z-Q(boro)L) were 265 ± 18.4 µM and 265 µM, respectively.

Consider Z-QL-H [compound 12], for which, on PSA, the Ki was more than 1000 µM.

As to Z-QNle-H [compound 21], the Ki at PSA is more than 1000 µM.

With Z-SKLL-H [compound 8], at PSA, the affinity, expressed as Ki, was 42.4 ± 2.13 µM.

Substance Z-SSK(Ac)L(boro)L [compound 48] registered a Ki on PSA of 0.294 ± 0.026 µM.

On PSA, Z-SSK(Boro)Nle [compound 35] gave a Ki of 34.2 ± 0.83 µM.

With Z-SSK(boro)L [compound 34], the affinity on PSA, expressed as Ki, was 18.5 ± 1.48 µM.

The substance Z-SSKAL-H [compound 7] displayed a Ki at PSA of 173 ± 6.12 µM.

Turning to Z-SSKIL-H [compound 4], the Ki on PSA is 37.4 ± 2.43 µM; on PSA (listed as Z-SSKIL-H) it was 37.4 µM.

Turning to Z-SSKKL-H [compound 5], the Ki on PSA turned out to be 57.8 ± 1.14 µM; at PSA (listed as Z-SSKKL-H), 57.8 µM.

Take Z-SSKL(boro)L [compound 39]: the Ki on PSA is approximately 0.065 µM; in experiment [1] it was more than 100 µM; on cathepsin B, more than 500 µM; on cathepsin D, more than 500 µM.

Consider Z-SSKL(boro)Nle [compound 38], for which the affinity on PSA, expressed as Ki, was 0.398 ± 0.02 µM.

Regarding Z-SSKL-H [compound 13], the Ki on PSA was more than 1000 µM.

Regarding Z-SSKLL-CH2OH [compound 26], the Ki at PSA was more than 1000 µM.

At PSA, Z-SSKLL-NH2 [compound 25] gave a Ki of more than 1000 µM.

Z-SSKLL-OH [compound 24] had a Ki at PSA of more than 1000 µM.

Turning to Z-SSKLNle-H [compound 18], the Ki on PSA is 11.2 ± 0.26 µM.

In turn, Z-SSKLNle-NH2 [compound 28] gave a Ki at PSA of more than 1000 µM.

At PSA, Z-SSKLNle-OH [compound 27] showed a Ki of more than 1000 µM.

On to Z-SSKNle-H [compound 22], for which, on PSA, the Ki was more than 1000 µM.

Z-SSKQL-H [compound 3]: the figures for the Ki at PSA and on PSA (listed as Z-SSKQL-H) were 21.8 ± 0.51 µM and 21.8 µM, respectively.

Turning to Z-SSKVL-H [compound 6], the Ki is 70.7 ± 1.77 µM at PSA and 70.7 µM on PSA (listed as Z-SSKVL-H).

On to Z-SSL(boro)L [compound 47], for which the Ki at PSA was found to be 3.86 ± 0.29 µM.

On PSA, Z-SSLKL-H [compound 15] gave a Ki of more than 500 µM.

Consider Z-YL-H [compound 10], for which the affinity on PSA, expressed as Ki, was 514 ± 11.5 µM.

At PSA, Z_KLNle-H [compound 19] had a Ki of 414 ± 22.5 µM.
